SMILES strings stand for the structures.

Chains of the proteins cited; added tags and fusions are not shown.
UniProt P50750, whole entry: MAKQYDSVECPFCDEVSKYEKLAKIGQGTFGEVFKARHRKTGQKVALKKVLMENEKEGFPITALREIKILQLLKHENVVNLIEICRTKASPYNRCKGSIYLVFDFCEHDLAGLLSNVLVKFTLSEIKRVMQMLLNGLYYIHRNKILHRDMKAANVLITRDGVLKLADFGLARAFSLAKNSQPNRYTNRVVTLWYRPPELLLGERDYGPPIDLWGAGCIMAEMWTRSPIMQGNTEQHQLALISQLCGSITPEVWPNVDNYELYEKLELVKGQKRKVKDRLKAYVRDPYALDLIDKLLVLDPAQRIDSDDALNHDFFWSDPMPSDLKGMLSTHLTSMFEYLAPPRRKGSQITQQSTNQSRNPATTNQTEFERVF

The test concerns the target CDK9/Cyclin T1 (Homo sapiens, UniProt P50750). The test is described as follows: CDK9 Enzymatic Activity Assay (Lance Kinase Activity Assay, FRET). It is filed as biochemical. The settings on record: selectivity CDK9 vs CDK7, enzymatic IC50 values. The method, then: This protocol describes how the Lance Kinase Activity Assay was performed to determine IC50 values of compounds of general formula (I) against CDK/Cyclin complexes. The principle behind this enzymatic assay is based upon the phosphorylation of the Ulight-Peptide Substrat. It is detected by using a specific EU-labeled anti-phospho peptide antibody.
Binding of an inhibitor to the kinase prevents phosphorylation of the Ulight-MBP Substrat, resulting in a loss of FRET.
CDK9 Enzymatic Activity Assay
The compounds of general formula (I) exemplary summarized in Table 1 were diluted from a 10 mM DMSO stock solution 1:10 in a total volume of 15 μl DMSO. This compound predilution was then serial diluted 1:3 over 8 steps in DMSO and briefly spun down. […]
For positive controls, 2 μl of DMSO working solution were mixed with 6 μl CDK9/cyclin T1/substrate working solution and 2 μl ATP working solution. Positive and negative controls were calculated from at least 8 different wells. […] Plates were mixed in a Teleshaker plate mixer (Beckman Coulter, Brea, Calif., USA) at 2000 rpm for 40 sec, followed by incubation with Detection Buffer for 1 h, and reading. […] IC50 values were determined from the sigmoidal dose response curves with the software Quattro Workflow (Quattro GmbH, Munich, Germany).

As to `CC(C)(C)c1cnc(CSc2cnc(NC(=O)C3CCNCC3)s2)o1` [SNS-032, reference compound], the “multiplicity of the CDK9 activity in terms of the CDK7 activity” value was “even lower than the CDK 7 activity”.
